Results taken from patent US9067908B2, “Polyphenolic bioprecursors” (RHODIA CHIMIE, priority 2005, dated 2015).

Amino acid sequences for entries named in this document (tags omitted). Residues count along the entry.
UniProt P30122, 19-597: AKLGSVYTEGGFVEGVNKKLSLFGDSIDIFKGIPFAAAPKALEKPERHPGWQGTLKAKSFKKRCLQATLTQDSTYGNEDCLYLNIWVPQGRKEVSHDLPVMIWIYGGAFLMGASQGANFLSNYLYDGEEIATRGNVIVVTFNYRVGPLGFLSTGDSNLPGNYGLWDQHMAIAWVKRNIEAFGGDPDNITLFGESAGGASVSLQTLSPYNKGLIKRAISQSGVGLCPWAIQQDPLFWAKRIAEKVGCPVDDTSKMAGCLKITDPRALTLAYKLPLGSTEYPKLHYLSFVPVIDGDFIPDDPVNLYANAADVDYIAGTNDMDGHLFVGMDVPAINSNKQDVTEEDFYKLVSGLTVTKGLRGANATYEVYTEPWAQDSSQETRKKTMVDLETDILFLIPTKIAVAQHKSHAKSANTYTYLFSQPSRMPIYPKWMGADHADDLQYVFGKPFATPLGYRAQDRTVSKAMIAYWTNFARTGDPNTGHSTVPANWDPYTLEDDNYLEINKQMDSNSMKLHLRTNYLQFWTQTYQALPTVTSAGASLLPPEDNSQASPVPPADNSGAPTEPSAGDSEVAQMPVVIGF

Tests used:
[1] = target: cholesterol esterase of bovine pancreas (E.C. 3.1.1.13) (Bos taurus, UniProt P30122)
[2] = system: Stratum corneum enzymatic extract; experiment: Bio-hydrolysis with the cutaneous enzymes obtained by tape stripping

(E)-4-(3,5-diacetoxystyryl)phenyl-2,5,7,8-tetramethyl-2-(4,8,12-trimethyltridecyl)-3,4-dihydro-2H-chromen-6-yl succinate [Res(Ac)2-succinate-Vit E]
Active substance(s) released by bio-hydrolyse: B [1]: Vitamin E | Active substance(s) released by bio-hydrolyse: Polyphenol (PP) [1]: Resveratrol | Active substance(s) released by bio-hydrolyse: A [2]: Acetate | Active substance(s) released by bio-hydrolyse: Polyphenol (PP) [2]: Res-succinate-Vit | Bio-hydrolysis Rate (%) ([2]; 35° C., bio-hydrolysis time 96 h): 26%
